Results reported in patent US9290490B2 (Merck Sharp & Dohme Corp., priority 2011, dated 2016).
pIC50: −log10 of the molar value. Where a name gives a salt, the structure may show the parent alone.

The compounds below were run against recombinant human GST-Syk (Homo sapiens (Human), UniProt P43405) (assay: Homogeneous Time-Resolved Fluorescence (HTRF) Assay for the Recombinant Human Syk Enzyme). Conditions: read-out: rhSyk Activity (IC50); recombinant human GST-Syk 5 pM, ATP 25 μM.
Type: biochemical
Compound `Cc1cc(Nc2nccc(C(F)(F)F)n2)cc(-c2cnc(C(C)(O)[C@H]3C[C@@H]3C(C)(C)C(=O)O)s2)c1` (single isomer, unassigned) has a pIC50 greater than 7.00.
`Cc1cc(Nc2nccc(C)n2)cc(-c2cnc(C(CC(O)CO)[C@H]3CC[C@H](C(=O)O)CC3)s2)c1` (some centres unmarked) showed a pIC50 greater than 7.00.
For `Cc1cc(Nc2nccc(C(F)(F)F)n2)cc(-c2cnc(C(O)C3(O)CCC(C(=O)O)CC3)s2)c1` (single isomer, unassigned), the pIC50 was greater than 7.00.
`COC(=O)C1CCC(C(O)c2ncc(-c3cc(C)cc(Nc4nccc(C(F)(F)F)n4)c3)s2)CC1` (centres unmarked) was tested, and the pIC50 was greater than 7.00.
For `Cc1cc(Nc2nccc(C)n2)cc(-c2cnc(C(C)(O)[C@H]3CC[C@@H](C(=O)O)[C@@H](C)C3)s2)c1` (single isomer, unassigned), the pIC50 was greater than 7.00.
`Cc1cc(Nc2nccc(C(F)F)n2)cc(-c2cnc(C(C)(O)C3CCC(C(=O)O)C(C)C3)s2)c1` (single isomer, unassigned) gave a pIC50 greater than 7.00.
`Cc1cc(Nc2nccc(C(F)(F)F)n2)cc(-c2cnc(C(C)(O)[C@@H]3C[C@@H]3C(C)(C)C(=O)O)s2)c1` (relative stereo) was tested, and the pIC50 was greater than 7.00.
For `Cc1cc(Nc2nccc(C(F)(F)F)n2)cc(-c2cnc(C(O)(CO)[C@H]3CC[C@H](C(=O)O)CC3)s2)c1` (single isomer, unassigned), the pIC50 was greater than 7.00.
In the case of `CCCCOC(=O)[C@H]1CC[C@H](C(C)(O)c2ncc(-c3cccc(Nc4nccc(C)n4)c3)s2)CC1` (single isomer, unassigned), the pIC50 was 5.00 to 6.00.
`Cc1cc(Nc2nccc(C(F)(F)F)n2)cc(-c2cnc(C(C)(O)[C@H]3CC[C@H](CO)CC3)s2)c1` (relative stereo) showed a pIC50 greater than 7.00.
`Cc1cc(Nc2nccc(C(F)(F)F)n2)cc(-c2cnc(C(O)[C@H]3CC[C@H](C(=O)O)CC3)s2)c1` (relative stereo) gave a pIC50 greater than 7.00.
`CCOC(=O)C1CCC(C(C)(O)c2ncc(-c3cc(C)cc(Nc4nccc(C(F)(F)F)n4)c3)s2)CC1C` (single isomer, unassigned) gave a pIC50 of 6.00 to 7.00.
Work on `CC(C)C(O)(c1ncc(-c2cccc(Nc3nccc(C(F)(F)F)n3)c2)s1)[C@H]1CC[C@H](C(=O)O)CC1` (single isomer, unassigned) yielded a pIC50 greater than 7.00.
`CCC(O)(c1ncc(-c2cc(C)cc(Nc3nccc(C)n3)c2)s1)[C@H]1CC[C@H](C(=O)O)CC1` (single isomer, unassigned) showed a pIC50 greater than 7.00.
Work on `Cc1cc(Nc2nccc(C(F)(F)F)n2)cc(-c2cnc(C(C)(F)[C@H]3CC[C@H](C(=O)O)CC3)s2)c1` (single isomer, unassigned) yielded a pIC50 greater than 7.00.
`CCOC(=O)[C@H]1CC[C@H](C(O)(CC)c2ncc(-c3cc(C)cc(Nc4nccc(C(F)(F)F)n4)c3)s2)CC1` (single isomer, unassigned) [2-7] gave a pIC50 greater than 7.00.
`Cc1cc(Nc2nccc(C)n2)cc(-c2cnc(C(C)(O)[C@H]3CC[C@H](C(=O)O)CC3)s2)c1` (single isomer, unassigned) [Example 2-52, trans-4-[(1R or S)-hydroxy-1-(5-{3-methyl-5-[(4-methylpyrimidin-2-yl)amino]phenyl}-1,3-thiazol-2-yl)ethyl]cyclohexanecarboxylic acid] was tested, and the pIC50 was greater than 7.00.
In the case of `Cc1cc(Nc2nccc(C(F)(F)F)n2)cc(-c2cnc(C(C)(O)C3CCC(C(=O)O)C(C)C3)s2)c1` (single isomer, unassigned), the pIC50 was greater than 7.00.
`CCOC(=O)C1CCC(C(C)(O)c2ncc(-c3cc(C)cc(Nc4ncc(F)c(OC)n4)c3)s2)CC1C` (single isomer, unassigned) showed a pIC50 of 6.00 to 7.00.
In the case of `CCOC(=O)C1CCC(C(C)(O)c2ncc(-c3cc(C)cc(Nc4nccc(C(F)F)n4)c3)s2)CC1C` (single isomer, unassigned), the pIC50 was greater than 7.00.
Work on `CCC(O)(c1ncc(-c2cc(C)cc(Nc3nccc(C(F)(F)F)n3)c2)s1)[C@H]1CC[C@H](C(=O)O)CC1` (single isomer, unassigned) yielded a pIC50 greater than 7.00.
`CCCCOC(=O)[C@H]1CC[C@H](C(C)(O)c2ncc(-c3cc(C)cc(Nc4nccc(C)n4)c3)s2)CC1` (some centres unmarked) gave a pIC50 of 6.00 to 7.00.
`Cc1cc(Nc2nccc(C(F)(F)F)n2)cc(-c2cnc(C(C)(O)[C@H]3C[C@@H]3C(C)(C)C(=O)O)s2)c1` (relative stereo) gave a pIC50 greater than 7.00.
Work on `COc1ccnc(Nc2cc(C)cc(-c3cnc(C(C)(O)C4CCC(C(=O)O)C(C)C4)s3)c2)n1` (single isomer, unassigned) yielded a pIC50 greater than 7.00.
With `Cc1cc(Nc2nccc(C(F)(F)F)n2)cc(-c2cnc(C(C)(O)[C@H]3CC[C@H](NS(C)(=O)=O)CC3)s2)c1` (some centres unmarked) the pIC50 was greater than 7.00.
For `Cc1cc(Nc2nccc(C(F)(F)F)n2)cc(-c2cnc(C(O)C3CCC(C(=O)O)CC3)s2)c1` (centres unmarked), the pIC50 was greater than 7.00.
For `Cc1cc(Nc2nccc(C(F)(F)F)n2)cc(-c2cnc(C(C)(O)C3CC(CC(=O)O)C3(C)C)s2)c1` (single isomer, unassigned), the pIC50 was greater than 7.00.
With `Cc1cc(Nc2nccc(C(F)(F)F)n2)cc(-c2cnc(C(O)[C@H]3CC[C@@H](C(=O)O)CC3)s2)c1` (relative stereo) the pIC50 was greater than 7.00.
`Cc1ccnc(Nc2cccc(-c3cnc(C(C)(O)[C@H]4CC[C@H](C(=O)O)CC4)s3)c2)n1` (single isomer, unassigned) gave a pIC50 greater than 7.00.
`Cc1cc(Nc2nccc(C)n2)cc(-c2cnc(C(C)(O)[C@H]3CC[C@H](C#N)CC3)s2)c1` (some centres unmarked) was tested, and the pIC50 was greater than 7.00.
For `Cc1cc(Nc2nccc(C(F)(F)F)n2)cc(-c2cnc(C(O)(C(C)C)[C@H]3CC[C@H](C(=O)O)CC3)s2)c1` (single isomer, unassigned), the pIC50 was greater than 7.00.
`Cc1cc(Nc2nccc(C)n2)cc(-c2cnc(C(C)(O)[C@H]3CC[C@H](NS(C)(=O)=O)CC3)s2)c1` (some centres unmarked) showed a pIC50 greater than 7.00.
In the case of `Cc1cc(Nc2nccc(C)n2)cc(-c2cnc(C(O)(CO)[C@H]3CC[C@H](C(=O)O)CC3)s2)c1` (single isomer, unassigned), the pIC50 was greater than 7.00.
Work on `CCOC(=O)[C@@H]1CC[C@@H](C(C)(O)c2ncc(-c3cc(C)cc(Nc4nccc(C(F)(F)F)n4)c3)s2)C[C@@H]1C` (single isomer, unassigned) yielded a pIC50 of 6.00 to 7.00.
With `Cc1cc(Nc2nccc(C)n2)cc(-c2cnc(C(O)([C@H]3CC[C@H](C(=O)O)CC3)C(F)(F)F)s2)c1` (single isomer, unassigned) the pIC50 was greater than 7.00.
For `Cc1cc(Nc2nccc(C)n2)cc(-c2cnc(C(C)(O)C3CCC(C(=O)O)C(C)C3)s2)c1` (single isomer, unassigned), the pIC50 was greater than 7.00.
Work on `CCCCOC(=O)[C@H]1CC[C@H](C(C)(O)c2ncc(-c3cc(C)cc(Nc4nccc(OC)n4)c3)s2)CC1` (single isomer, unassigned) yielded a pIC50 of 6.00 to 7.00.
For `Cc1cc(Nc2nccc(C(F)(F)F)n2)cc(-c2cnc(C(O)([C@H]3CC[C@H](C(=O)O)CC3)C(F)(F)F)s2)c1` (single isomer, unassigned), the pIC50 was greater than 7.00.
In the case of `Cc1cc(Nc2nccc(C(F)(F)F)n2)cc(-c2cnc(C(C)(O)[C@H]3CC[C@H](C#N)CC3)s2)c1` (some centres unmarked), the pIC50 was greater than 7.00.

Same assay, conditions: read-out: rhSyk Activity (IC50); recombinant human GST-Syk 5 pM, ATP 25 μM; tested form: TFA
Work on `Cc1cc(Nc2nccc(C(F)(F)F)n2)cc(-c2cnc(C(C)(O)[C@H]3CC[C@H](c4nn[nH]n4)CC3)s2)c1` (single isomer, unassigned) [Example 6 (faster eluting enantiomer), 2-{[3-(2-{1-hydroxy-1-[trans-4-(2H-tetrazol-5-yl)cyclohexyl]ethyl}-1,3-thiazol-5-yl)-5-methylphenyl]amino}-4-(trifluoromethyl)pyrimidin-1-ium trifluoroacetate] yielded a pIC50 greater than 7.00.
For `Cc1cc(Nc2nccc(C(F)(F)F)n2)cc(-c2cnc(C(O)(CO)[C@H]3CC[C@H](C(=O)O)CC3)s2)c1` (single isomer, unassigned), the pIC50 was greater than 7.00.
For `Cc1cc(Nc2nccc(C(F)(F)F)n2)cc(-c2cnc(C(C)(O)C3C4CC(C(=O)O)CC43)s2)c1` (centres unmarked), the pIC50 was greater than 7.00.
`Cc1cc(Nc2ncc(F)c(C3CC3)n2)cc(-c2cnc(C(C)(O)[C@H]3CC[C@H](C(=O)O)CC3)s2)c1` (relative stereo) showed a pIC50 greater than 7.00.
In the case of `COc1ccnc(Nc2cc(C)cc(-c3cnc(C(O)(CO)[C@H]4CC[C@H](C(=O)O)CC4)s3)c2)n1` (some centres unmarked), the pIC50 was greater than 7.00.
In the case of `CC(C)C(O)(c1ncc(-c2cccc(Nc3nccc(C(F)(F)F)n3)c2)s1)[C@H]1CC[C@H](C(=O)O)CC1` (single isomer, unassigned), the pIC50 was greater than 7.00.
`Cc1cc(Nc2nccc(C(F)(F)F)n2)cc(-c2cnc(C(C)(O)C34CC5CC(CC(C(=O)O)(C5)C3)C4)s2)c1` (racemic) showed a pIC50 greater than 7.00.
With `Cc1cc(Nc2nccc(C(F)(F)F)n2)cc(-c2cnc(C(C)(O)C3CC4C(C3)C4C(=O)O)s2)c1` (single isomer, unassigned) the pIC50 was greater than 7.00.
For `Cc1cc(Nc2nccc(C(F)(F)F)n2)cc(-c2cnc(C(F)C3CCC(C(=O)O)CC3)s2)c1` (single isomer, unassigned), the pIC50 was greater than 7.00.
With `Cc1cc(Nc2nccc(C)n2)cc(-c2cnc(C(O)(CO)[C@H]3CC[C@H](C(=O)O)CC3)s2)c1` (single isomer, unassigned) the pIC50 was greater than 7.00.
With `Cc1cc(Nc2nccc(C)n2)cc(-c2cnc(C(O)([C@H]3CC[C@H](C(=O)O)CC3)C(F)(F)F)s2)c1` (single isomer, unassigned) the pIC50 was greater than 7.00.
Compound `Cc1cc(Nc2nccc(C)n2)cc(-c2cnc(C(C)(O)[C@H]3CC[C@H](c4nn[nH]n4)CC3)s2)c1` (single isomer, unassigned) has a pIC50 greater than 7.00.
In the case of `Cc1cc(Nc2nccc(C(F)(F)F)n2)cc(-c2cnc(C(C)(O)[C@@H]3C[C@H](C(=O)O)C3(C)C)s2)c1` (some centres unmarked), the pIC50 was greater than 7.00.

Same assay, conditions: read-out: rhSyk Activity (IC50); recombinant human GST-Syk 5 pM, ATP 25 μM; tested form: ammonium salt
`COc1nc(Nc2cc(C)cc(-c3cnc(C(C)(O)[C@H]4CC[C@H](C(=O)O)CC4)s3)c2)ncc1F` (single isomer, unassigned) showed a pIC50 greater than 7.00.
`Cc1cc(Nc2nccc(OC(C)C)n2)cc(-c2cnc(C(C)(O)[C@H]3CC[C@H](C(=O)O)CC3)s2)c1` (single isomer, unassigned) gave a pIC50 greater than 7.00.
Compound `COc1ccnc(Nc2cc(C)cc(-c3cnc(C(C)(O)[C@H]4CC[C@H](C(=O)O)CC4)s3)c2)n1` (single isomer, unassigned) has a pIC50 greater than 7.00.
In the case of `COc1nc(Nc2cc(C)cc(-c3cnc(C(C)(O)[C@H]4CC[C@H](C(=O)O)CC4)s3)c2)ncc1Cl` (single isomer, unassigned), the pIC50 was greater than 7.00.
`Cc1cc(Nc2ncc(F)c(C)n2)cc(-c2cnc(C(C)(O)[C@H]3CC[C@H](C(=O)O)CC3)s2)c1` (single isomer, unassigned) was tested, and the pIC50 was greater than 7.00.
`Cc1cc(Nc2ncc(Cl)c(C)n2)cc(-c2cnc(C(C)(O)[C@H]3CC[C@H](C(=O)O)CC3)s2)c1` (single isomer, unassigned) showed a pIC50 greater than 7.00.
With `Cc1cc(Nc2nccc(C3CC3)n2)cc(-c2cnc(C(C)(O)[C@H]3CC[C@H](C(=O)O)CC3)s2)c1` (single isomer, unassigned) the pIC50 was greater than 7.00.

Same assay, conditions: read-out: rhSyk Activity (IC50); recombinant human GST-Syk 5 pM, ATP 25 μM; tested form: ammonium salt; TFA salt
In the case of `Cc1cc(Nc2nccc(C3CC3)n2)cc(-c2cnc(C(C)(O)[C@H]3CC[C@H](C(=O)O)CC3)s2)c1` (single isomer, unassigned), the pIC50 was greater than 7.00.

Same assay, conditions: read-out: rhSyk; recombinant human GST-Syk 5 pM, ATP 25 μM, 10-dose titration
For `Cc1cc(Nc2nccc(C(F)(F)F)n2)cc(-c2cnc(C(C)(O)[C@@H]3C[C@@H]3C(C)(C)C(=O)O)s2)c1` (relative stereo), the pIC50 was 9.00.
With `CCCCOC(=O)[C@H]1CC[C@H](C(C)(O)c2ncc(-c3cccc(Nc4nccc(C)n4)c3)s2)CC1` (single isomer, unassigned) the pIC50 was 5.84.

Same assay, conditions: read-out: rhSyk; recombinant human GST-Syk 5 pM, ATP 25 μM, 10-dose titration; tested form: TFA
`Cc1cc(Nc2ncc(F)c(C3CC3)n2)cc(-c2cnc(C(C)(O)[C@H]3CC[C@H](C(=O)O)CC3)s2)c1` (relative stereo) showed a pIC50 greater than 9.30.
For `Cc1cc(Nc2nccc(C(F)(F)F)n2)cc(-c2cnc(C(C)(O)C3CC4C(C3)C4C(=O)O)s2)c1` (single isomer, unassigned), the pIC50 was 8.52.
Compound `Cc1cc(Nc2nccc(C)n2)cc(-c2cnc(C(C)(O)[C@H]3CC[C@H](c4nn[nH]n4)CC3)s2)c1` (single isomer, unassigned) has a pIC50 of 8.30.
